Data published in patent publication US11406643B2, “Targeting kinases for the treatment of cancer metastasis” (Board of Regents, The University of Texas System, priority 2017, dated 2022).

Tested on: EO771 cells
Conditions: CDK5 knockdown EO771 cells compared to control EO771 cells; FIG. 9A

SMILES: CC[C@H](CO)Nc1nc(NCc2ccccc2)c2ncn(C(C)C)c2n1 [roscovitine]
- sensitivity of cells to roscovitine (cell viability curve): less sensitive
